Values quoted from earlier work in patent US20060287342A1, “Triazolopyrimidine heterocycles as cannabinoid receptor modulators” (priority 2005, published 2006).

Conditions: chronic administration for two weeks

## Cc1c(C(=O)NN2CCCCC2)nn(-c2ccc(Cl)cc2Cl)c1-c1ccc(I)cc1 [AM-251]
  adipose tissue mass: decreased adipose tissue mass
